Here are results for one substance from patent US20100183604A1, “PREVENTIVE/REMEDY FOR CANCER” (TAKEDA PHARMACEUTICAL COMPANY LIMITED, priority 2007, published 2010).

Test [1] concerns BT474 cells highly sensitive to trastuzumab. As to the kind of experiment: Viable cell count after HER2 inhibitor addition (no siRNA), high sensitive cell line. The format is cell-based, human. The settings on record: 3 μg/mL vs without addition, 5 days. How it is done:
(§1) After culture for 5 days at 37° C., 5% CO2, the number of viable cells was counted.

Test [2] relates to trastuzumab low sensitive BT-474 cells. As to the kind of experiment: Viable cell count after HER2 inhibitor addition (no siRNA), low sensitive cell line. The note with it: 3 μg/mL vs without addition, 5 days. The format is cell-based, human. Here is the method: as §1

With “trastuzumab: anti-HER2 antibody (trade mark herceptin), conventional HER2 inhibitor”, the growth suppression entry is “about 50%” in test [1] and “about 10%” in test [2].
